What all share (type): cell-based, human
Test [1] concerns total intracellular HDAC activity in SCC25 cells. The experiment in a line: HDACi activity with fluorogenic substrate in live cells. Conditions: increasing concentration, Fig. 2a, b. The protocol:
(§1) Compounds were also tested along with 1,25D for HDACi activity using a fluorogenic substrate in vivo in SCC25 and SCC4 cells (Figs. 2a, b). This assay measures the inhibition of total intracellular HDAC activity and determines the capacity of compounds to inhibit HDACs in the form of their naturally occurring complexes.

Test [2] relates to total intracellular HDAC activity in SCC4 cells. Described as above. Conditions: increasing concentration, Fig. 2a, b. The procedure:
as §1

A further test deals with SCC4 cells. Nature of the test: MTS cell proliferation assay. The conditions noted are these: vitamin D resistant SCC4 cells, Figures 7c, 8 and 9. The text has this: Dose-dependent effects of compounds on cell cycle progression was monitored using a CellTiter 96 Aqueous Non-Radioactive Cell Proliferation Assay Kit (Promega). The assay composed of solutions of a novel tetrazolium compound (MTS) and an electron coupling reagent (phenazine methosulfate; PMS). MTS is reduced by metabolically active cells into a soluble formazan product that absorbs at 490nm. The quantity of formazan product absorbing at 490nm is directly proportional to the number of living cells.
This antiproliferative effect again results from the combination of VDR agonism and HDACi activity of the molecules, as molecules lacking strong VDR agonism or HDACi activity (e.g. 1,25D) are ineffective.
A general note: Formazan colour is commonly taken as a measure of viable cells.

Turning to `C=C1/C(=C\C=C2/CCC[C@]3(C)[C@@H]([C@H](C)CCCC(C)(C)O)CC[C@@H]23)C[C@@H](O)C[C@@H]1O` [1,25D, 1,25-dihydroxyvitamin D, reference compound], the “HDACi activity, substrate deacetylation” value in test [1] and in test [2] was “no effect” each time. For the same compound, the antiproliferative potency result in the test with SCC4 cells is on record as “ineffective”.

The values are drawn from EP2794556B1, “BIS-(ARYL/HETEROARYL)-METHYLENE COMPOUNDS, PHARMACEUTICAL COMPOSITIONS CONTAINING SAME AND THEIR USE FOR TREATING CANCER” (Gleason, James L., priority 2011, dated 2013).
